How the values were obtained:
[1] = Chemical stability in ammonium acetate buffer at pH 4 upto 100 uM and measured upto 120 hrs by LC-UV analysis; type: physicochemical; conditions: pH 4, 120 h
[2] = Chemical stability in ammonium acetate buffer at pH 9.5 upto 100 uM and measured upto 120 hrs by LC-UV analysis; type: physicochemical; conditions: pH 9.5, 120 h

| Stability [1] | Stability [2] | SMILES |
| --- | --- | --- |
| Stable | Stable | O=c1c2ccccc2c(-c2ccc(Cl)c(Cl)c2)nn1CO[C@@H]1C=CO[C@H](CO)[C@@H]1O |
| Stable | Stable | Cc1ccc(-c2nn(CO[C@@H]3C=CO[C@H](CO)[C@@H]3O)c(=O)c3ccccc23)cc1 |
| Stable | Stable | O=c1c2ccccc2c(-c2ccccc2)nn1CO[C@@H]1C=CO[C@H](CO)[C@@H]1O |
| Stable | Stable | O=c1c2ccccc2cnn1CO[C@@H]1C=CO[C@H](CO)[C@@H]1O |

From ChEMBL document CHEMBL5579863, “Galectin-8N-Selective 4-Halophenylphthalazinone-Galactals Double π-Stack in a Unique Pocket” (ACS Med Chem Lett, 2024)
